These results are taken from PubChem BioAssay AID485272 (The Scripps Research Institute Molecular Screening Center, 2010).

Sequences of proteins named here, by UniProt entry; tags and fusion partners are left off.
UniProt Q9UM07, whole entry, looked up: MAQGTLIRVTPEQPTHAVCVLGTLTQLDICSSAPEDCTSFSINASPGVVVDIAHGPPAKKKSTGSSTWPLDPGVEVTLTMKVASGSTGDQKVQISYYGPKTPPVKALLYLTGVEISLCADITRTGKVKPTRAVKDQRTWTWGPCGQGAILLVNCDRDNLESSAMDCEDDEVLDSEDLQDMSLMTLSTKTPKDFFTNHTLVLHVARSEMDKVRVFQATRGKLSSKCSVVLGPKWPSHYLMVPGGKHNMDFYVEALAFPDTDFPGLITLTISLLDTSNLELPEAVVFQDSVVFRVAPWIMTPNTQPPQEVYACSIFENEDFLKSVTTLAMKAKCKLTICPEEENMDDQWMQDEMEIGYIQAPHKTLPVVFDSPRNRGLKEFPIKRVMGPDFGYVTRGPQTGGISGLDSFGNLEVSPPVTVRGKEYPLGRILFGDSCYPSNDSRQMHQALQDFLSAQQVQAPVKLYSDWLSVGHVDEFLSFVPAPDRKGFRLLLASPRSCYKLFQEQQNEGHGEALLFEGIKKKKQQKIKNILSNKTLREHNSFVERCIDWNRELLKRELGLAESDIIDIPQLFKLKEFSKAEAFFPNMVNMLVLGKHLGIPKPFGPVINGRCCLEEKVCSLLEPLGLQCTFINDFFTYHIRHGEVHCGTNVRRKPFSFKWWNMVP

Only a part is listed here, and it is no random draw. Active and inactive are the calls of the source.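 How the source made its calls: active means percent inhibition above a cutoff equal to the mean of all tested compounds plus 3 SD (cut at about 15% in these data); inactive means the rest.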

The inhibition is the relative decrease from the control value, in per cent.

The experiment concerns the target Protein-arginine deiminase type-4 (Homo sapiens) (UniProt Q9UM07). Nature of the experiment: protein arginine deiminase 4 enzyme blockade – biochemical, fluorescence polarization, 1536-well format, primary screen (AID 485272).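 Further: 0% = PAD4 with RCA probe and DMSO and 100% = probe without PAD4.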 The settings on record: recombinant PAD4, RCA probe fluorescence polarization; at 6.36 µM; stronger effect = higher value.
`Cc1nn(-c2ccccc2)c2c1P(=O)(N1CCOCC1)N(C)C(c1ccccc1)=N2` (stereo not given): the inhibition is inactive: -2.56%.

In the case of `Cc1ccc(C(=O)OC2CN3CCC2CC3)cc1` (stereo not given), the inhibition was inactive: -3.54%.

As for `CC1CCC(C(C)C)C(OP(=O)(Nc2ccccn2)c2ccccc2)C1` (stereo not given), the inhibition was inactive: 1.76%.

For the molecule `CN(C)C1(CNC(=O)c2ccc(S(C)(=O)=O)cc2)CCCCC1`, the inhibition was inactive: -1.58%.

In the case of `O=C(/C=C/c1ccccc1)OC1CN2CCC1CC2` (stereo not given), the inhibition is inactive: 5.63%.

For `O=P1(Nc2ncccn2)COc2ccccc2OC1`, the inhibition is inactive: 0.62%.

As for `Nc1cccc([As](=O)(O)c2ccccc2)c1`, the inhibition is inactive: 3.34%.

On to `O=[As](O)(c1cccs1)c1cccs1`, for which the inhibition is inactive: -7.06%.

Take `Cc1ccc(OCC(=O)OC2CN3CCC2CC3)cc1` (stereo not given): the inhibition was inactive: 4%.

Take `NS(=O)(=O)c1cccc(NC(=O)COC(=O)C(O)(c2ccccc2)c2ccccc2)c1`: the inhibition was inactive: 0.49%.

For `O=P1(Nc2ccc(Br)cn2)COc2ccccc2OC1`, the inhibition was inactive: -3.33%.

For `CCC1=CC2Cc3nc4ccc(Cl)cc4c(N)c3C(C1)C2` (stereo not given), the inhibition is inactive: 0.33%.

In the case of `O=P1(Nc2ccccn2)COc2ccccc2OC1`, the inhibition is inactive: -2.14%.

For `CCOP(=O)(NC(=NC(C)c1ccccc1)NC(C)c1ccccc1)OCC` (stereo not given), the inhibition is inactive: 5.17%.

As for `CCOP(=O)(Nc1ccc(C)cn1)OCC`, the inhibition is inactive: 4.49%.

In the case of `CN(CCCl)Cc1cc(Cl)c(NC2=NCCN2)c(Cl)c1`, the inhibition is inactive: 0.11%.

`Clc1n[nH]nc1-c1nn[nH][15n]1`: the inhibition was inactive: -3.51%.

In the case of `CC(C)(C)C(=O)NC(Sc1ncccn1)C(Cl)(Cl)Cl` (stereo not given), the inhibition is inactive: 4.36%.

`COc1ccccc1CNC(=O)COC(=O)C(O)(c1ccccc1)c1ccccc1`: the inhibition was inactive: 2.04%.

For `CN(C(=O)Cc1ccc(Cl)c(Cl)c1)[C@@H]1CCCC[C@H]1N1CCCC1`, the inhibition is inactive: 2.1%.

`CC(C)/C=N\N=C(\N)N[N+](=O)[O-]`: the inhibition was inactive: 2.39%.

For the molecule `O=[As](O)(c1ccccc1Br)c1ccccc1Br`, the inhibition is inactive: -1.55%.

For `CC1(CBr)Cn2c(nc3ccccc3c2=O)S1` (stereo not given), the inhibition is inactive: 1.39%.

Regarding `O=C(OC1CN2CCC1CC2)c1ccc(Cl)cc1` (stereo not given), the inhibition is inactive: -0.6%.

`O=[As](O)(O)c1cccnc1`: the inhibition is inactive: -3.43%.

On to `COc1cc(C(=O)NCC2(N3CCOCC3)CCCCC2)cc(Cl)c1OC(C)C`, for which the inhibition was inactive: -1.9%.

Consider `CS(=O)(=O)c1ccc(Cl)c(NC(=O)COC(=O)C(O)(c2ccccc2)c2ccccc2)c1`, for which the inhibition is inactive: 0.1%.

Regarding `Cc1cccc(OCC(=O)OC2CN3CCC2CC3)c1` (stereo not given), the inhibition is inactive: -1.39%.

Turning to `O=[As](O)(c1cccc(O)c1)c1cccc(O)c1`, the inhibition is inactive: 1.81%.

In the case of `Nc1cccc2c([As](=O)(O)O)cccc12`, the inhibition is active: 92%.

Regarding `Cc1ccc(NCCc2c([N+](=O)[O-])cc([N+](=O)[O-])cc2[N+](=O)[O-])cc1`, the inhibition was inactive: -11.9%.

Consider `CCCOP(=S)(Nc1nc(N)cc(=O)[nH]1)OCCC`, for which the inhibition is inactive: -1.91%.

On to `COc1cc(C2NCCC3(OCCO3)C2(C)C)cc(OC)c1OC` (stereo not given), for which the inhibition was inactive: 0.93%.

As for `CCOP(=O)(Nc1cccc2ccccc12)OCC`, the inhibition was inactive: 1.82%.

Consider `CCOP1(=S)c2c(C)nn(CCC#N)c2N=C(c2ccccc2F)N1C` (stereo not given), for which the inhibition is inactive: 2.73%.

Regarding `O=P(Nc1nccs1)(Oc1ccccc1)Oc1ccccc1`, the inhibition was inactive: -2.58%.

`O=P(Nc1nccs1)(c1ccccc1)c1nc2ccccc2s1` (stereo not given): the inhibition is inactive: 0.52%.

`CS(=O)(=O)c1cc([N+](=O)[O-])c2no[n+]([O-])c2c1`: the inhibition is inactive: -9.46%.

With `O=C(O)COc1ccc([As](=O)(O)O)cc1[N+](=O)[O-]`, the inhibition is inactive: 1.71%.

Take `Nc1ccccc1[As](=O)(O)c1ccccc1`: the inhibition was inactive: -0.75%.

Take `NC(=O)Nc1ccc([As](=O)(O)O)cc1`: the inhibition is inactive: 0.01%.

As for `N#CCCN(C(=O)COC(=O)C(O)(c1ccccc1)c1ccccc1)c1ccc(F)cc1`, the inhibition was inactive: -2.94%.

For `CN(C(=O)Cc1ccccc1)[C@@H]1CC[C@]2(CCCO2)C[C@H]1N1CCCC1`, the inhibition is inactive: -4.17%.

On to `CCOP1(=S)c2c(C)nn(CCC#N)c2N=C(c2ccc(F)cc2)N1C` (stereo not given), for which the inhibition was inactive: -0.91%.

Regarding `O=[N+]([O-])c1ccc2c(c1)nnn2O`, the inhibition was inactive: 3.7%.

Take `CN(C)C(=O)c1cc([N+](=O)[O-])cc2c1-c1c(cc([N+](=O)[O-])cc1[N+](=O)[O-])C2=O`: the inhibition was inactive: 0.04%.

Consider `CN(C(=O)Cc1ccc(Cl)c(Cl)c1)[C@H]1CC[C@@]2(CCCO2)C[C@@H]1N1CCCC1`, for which the inhibition is inactive: -1.29%.

For the molecule `C[As](=O)(O)c1cccc(C(=O)O)c1`, the inhibition was inactive: -0.78%.

With `O=[As](O)(c1ccc(O)cc1)c1ccccc1O`, the inhibition is inactive: 12.6%.

As to `COc1cc(C(=O)NCC2(N3CCOCC3)CCCCC2)ccc1OCC(C)C`, the inhibition was inactive: -2.67%.

`Cc1ccc(OP(=O)(Nc2ccc([N+](=O)[O-])cn2)Oc2ccc(C)cc2)cc1`: the inhibition was inactive: 0.15%.

In the case of `Cc1ccc2nc3c(c(C)c2c1)CC(C(Cl)Cl)S3` (stereo not given), the inhibition is inactive: -3.83%.

As for `ClCCSc1nnc(-c2cccnc2)o1`, the inhibition was inactive: -1.81%.

As to `CC(C)c1ccc(OP(=O)(Nc2ccccn2)Oc2ccccc2F)cc1` (stereo not given), the inhibition was inactive: 0.29%.

Regarding `CC(C)NC(=O)NP(=O)(Oc1ccccc1)Oc1ccccc1`, the inhibition is inactive: 1.09%.

For the molecule `CCN(CC)C(=S)SC(NC=O)C(Cl)(Cl)Cl` (stereo not given), the inhibition is inactive: 0.81%.

In the case of `O=[N+]([O-])c1cc([N+](=O)[O-])c(-c2ccn[nH]2)s1`, the inhibition was inactive: -11.4%.

In the case of `Cc1c2c(nc3ccccc13)SC(C(Cl)Cl)C2` (stereo not given), the inhibition was inactive: 3.78%.

On to `O=C(OC1CN2CCC1CC2)C12CC3CC(CC(C3)C1)C2` (stereo not given), for which the inhibition was inactive: -1.78%.

Consider `Cc1cc(=O)[nH]c(N[N+](=O)[O-])n1`, for which the inhibition is inactive: -3.19%.

`COc1ccc2nc(NP(=O)(c3ccccc3)c3ccccc3)sc2c1`: the inhibition was inactive: -4.41%.

Take `COc1cc(I)ccc1[As](=O)(O)O`: the inhibition was inactive: 2.44%.

Consider `COc1ccc(N/C(=N/P(=O)(N2CCOCC2)N2CCOCC2)N2CCOCC2)cc1`, for which the inhibition was inactive: 1.56%.

Regarding `COP1(=S)c2c(C)nn(CCC#N)c2N=C(c2ccc(F)cc2)N1C` (stereo not given), the inhibition was inactive: -3.11%.

Take `O=C(COc1ccccc1)OC1CN2CCC1CC2` (stereo not given): the inhibition is inactive: 3.14%.

In the case of `O=C(Nc1ccncc1[N+](=O)[O-])c1ccc([N+](=O)[O-])cc1[N+](=O)[O-]`, the inhibition is inactive: -8.11%.

As for `O=C(OC1CN2CCC1CC2)c1cccc([N+](=O)[O-])c1` (stereo not given), the inhibition was inactive: 5.79%.

Regarding `CCOC(=O)c1ccc(NC(=O)C(C)(CCl)SC)cc1` (stereo not given), the inhibition was inactive: -3.95%.

`CCC(C)N(CC(C)C)C(=S)SC(NC(C)=O)C(Cl)(Cl)Cl` (stereo not given): the inhibition is inactive: -4.3%.

`CCOC(=O)Nc1ccc([As](=O)(O)O)c(O)c1`: the inhibition is inactive: 3.99%.

For `Cc1cc(SC(NC(=O)c2ccccc2)C(Cl)(Cl)Cl)nc(C(C)C)n1` (stereo not given), the inhibition is inactive: 1.63%.

Consider `CCOC(=O)Nc1cccc([As](=O)(O)O)c1`, for which the inhibition was inactive: 0.31%.

Regarding `Cc1cc(SC(NC=O)C(Cl)(Cl)Cl)ncn1` (stereo not given), the inhibition is inactive: -4.67%.

On to `O=P(Nc1ccccn1)(c1cccc2ccccc12)c1cccc2ccccc12`, for which the inhibition is inactive: -3.43%.

`O=C(Nc1cc([As](=O)(O)O)ccc1O)c1ccccc1`: the inhibition was inactive: 5.3%.

Take `O=[N+]([O-])c1ncn(CCn2ncnc2[N+](=O)[O-])n1`: the inhibition was inactive: -2.62%.

Regarding `CC(C)(C)C(=O)NC(Sc1ccncn1)C(Cl)(Cl)Cl` (stereo not given), the inhibition is inactive: -0.19%.

Consider `O=[N+]([O-])c1cccc(NC2=NCC(CBr)S2)c1` (stereo not given), for which the inhibition was inactive: -0.4%.

Take `COc1ccc(C2=NCC(CBr)S2)cc1` (stereo not given): the inhibition was inactive: -0.49%.

For the molecule `Cc1ccc(NP(=O)(Oc2ccccc2)Oc2ccccc2)nc1`, the inhibition is inactive: -6.08%.

With `O=[N+]([O-])c1cc([N+](=O)[O-])c(CCNc2ccccc2)c([N+](=O)[O-])c1`, the inhibition was inactive: -7.25%.

As for `CCc1nc2c(n1)c1c(non1O)c1c2no[n+]1[O-]`, the inhibition was inactive: 4.21%.

Take `CC(=O)N1C2C3N(C(C)=O)C1C1N(C(C)=O)C(C(N1C(C)=O)N3C(C)=O)N2C(C)=O`: the inhibition is inactive: 1.99%.

For `O=[N+]([O-])c1cccc2n[nH]nc12`, the inhibition was inactive: 1.22%.

As to `CCN(/C(=N/P(=O)(N1CCOCC1)N1CCOCC1)N1CCOCC1)c1ccc(OC)cc1`, the inhibition was inactive: 0.34%.

As to `Nc1ccc([As](=O)(O)c2ccc(N)cc2)cc1`, the inhibition was inactive: 5.61%.

`C[N+]1=C2C=CC=CC=C2SC12C([N+](=O)[O-])=CC([N+](=O)[O-])=C[C-]2[N+](=O)[O-]` (stereo not given): the inhibition was inactive: -2.43%.

With `CC1CCN(C(=O)Oc2c(Cl)cc(Cl)c3cccnc23)CC1`, the inhibition is inactive: 0.5%.

Take `CC(C)=N/N=C(\N)N[N+](=O)[O-]`: the inhibition is inactive: 2.74%.

In the case of `CN(C)C(=O)OCCc1n(C)cc[n+]1C`, the inhibition is inactive: -1.53%.

As to `CN(C(=O)Cc1ccc(Cl)c(Cl)c1)[C@H]1CCCC[C@H]1N1CCCC1`, the inhibition is inactive: -0.93%.

In the case of `Cc1ccc(N/C(=N/P(=O)(N2CCOCC2)N2CCOCC2)N2CCOCC2)cc1`, the inhibition is inactive: -1.44%.

Regarding `NC(=O)c1cc([N+](=O)[O-])cc([N+](=O)[O-])c1N`, the inhibition was inactive: -10.5%.

Regarding `CN1CCCC(OC(=O)C(c2ccccc2)c2ccccc2)C1` (stereo not given), the inhibition was inactive: 0.47%.

Regarding `Clc1ccc(Cl)c(NC2=NCC(CBr)S2)c1` (stereo not given), the inhibition is inactive: -4.78%.

As for `COc1ccccc1OP(=O)(Nc1ccc(C)cn1)Oc1ccccc1OC`, the inhibition is inactive: -1.88%.

In the case of `Cc1ccc(OP(=O)(Nc2nccs2)Oc2ccc(C)cc2)cc1`, the inhibition is inactive: -1.8%.

Regarding `Oc1ccccc1CNc1ccccn1`, the inhibition is inactive: -4.94%.

With `O=C(NC(Sc1ccncn1)C(Cl)(Cl)Cl)c1ccccc1` (stereo not given), the inhibition was inactive: -3.95%.

With `Cc1c2non([O-])c-2c(C)[n+](=O)[n+]1[O-]`, the inhibition was inactive: 1.08%.
